Assay: Sumatriptan pharmacokinetics in female Sprague Dawley rats
Settings: rat, in vivo, 0.358 mg

CNS(=O)(=O)Cc1ccc2[nH]cc(CCN(C)C)c2c1 [Sumatriptan, sumatriptan]
Tmax (iv): 2 min | Tmax (sc): 5 min | half-life (sc): 36.6 min

Reference: patent publication US8785396B2, “Method and composition for treating migraines” (Mannkind Corporation, priority 2007, dated 2014)
